PubChem BioAssay AID1768 (National Center for Advancing Translational Sciences (NCATS), 2009)
The list shows a part of the results, in another mix than the full data. Inconclusive results are not listed. Activity calls are given as the source filed them. The call rests on the fitted dose curve; in most records, active means well fitted inhibition curve with a large enough effect in the polarisation, with a control signal flat (not every such curve was filed as active); inconclusive means small, poorly fitted or top-dose-only effect, or effect the other way, or a change in a side signal; inactive means no such curve, though single readings can be large or run the other way; the % refers to the polarisation.

Chains of the proteins cited; added tags and fusions are not shown.
UniProt O00255, whole entry: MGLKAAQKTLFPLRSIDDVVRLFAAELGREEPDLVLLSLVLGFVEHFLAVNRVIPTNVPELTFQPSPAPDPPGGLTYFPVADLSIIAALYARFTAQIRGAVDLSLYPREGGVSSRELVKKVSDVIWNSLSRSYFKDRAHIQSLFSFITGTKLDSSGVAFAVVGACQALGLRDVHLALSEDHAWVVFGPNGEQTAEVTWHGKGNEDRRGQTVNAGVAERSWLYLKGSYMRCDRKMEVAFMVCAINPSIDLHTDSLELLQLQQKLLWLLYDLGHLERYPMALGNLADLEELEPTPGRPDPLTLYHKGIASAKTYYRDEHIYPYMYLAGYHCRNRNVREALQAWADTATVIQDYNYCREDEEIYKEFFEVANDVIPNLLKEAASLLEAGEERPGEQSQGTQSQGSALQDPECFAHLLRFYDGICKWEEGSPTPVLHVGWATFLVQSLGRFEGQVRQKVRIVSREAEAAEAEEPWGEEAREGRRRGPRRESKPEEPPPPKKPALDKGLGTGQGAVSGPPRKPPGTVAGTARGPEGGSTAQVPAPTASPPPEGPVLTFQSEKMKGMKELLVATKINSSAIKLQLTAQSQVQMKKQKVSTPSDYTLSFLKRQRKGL
UniProt Q03164, whole entry partner: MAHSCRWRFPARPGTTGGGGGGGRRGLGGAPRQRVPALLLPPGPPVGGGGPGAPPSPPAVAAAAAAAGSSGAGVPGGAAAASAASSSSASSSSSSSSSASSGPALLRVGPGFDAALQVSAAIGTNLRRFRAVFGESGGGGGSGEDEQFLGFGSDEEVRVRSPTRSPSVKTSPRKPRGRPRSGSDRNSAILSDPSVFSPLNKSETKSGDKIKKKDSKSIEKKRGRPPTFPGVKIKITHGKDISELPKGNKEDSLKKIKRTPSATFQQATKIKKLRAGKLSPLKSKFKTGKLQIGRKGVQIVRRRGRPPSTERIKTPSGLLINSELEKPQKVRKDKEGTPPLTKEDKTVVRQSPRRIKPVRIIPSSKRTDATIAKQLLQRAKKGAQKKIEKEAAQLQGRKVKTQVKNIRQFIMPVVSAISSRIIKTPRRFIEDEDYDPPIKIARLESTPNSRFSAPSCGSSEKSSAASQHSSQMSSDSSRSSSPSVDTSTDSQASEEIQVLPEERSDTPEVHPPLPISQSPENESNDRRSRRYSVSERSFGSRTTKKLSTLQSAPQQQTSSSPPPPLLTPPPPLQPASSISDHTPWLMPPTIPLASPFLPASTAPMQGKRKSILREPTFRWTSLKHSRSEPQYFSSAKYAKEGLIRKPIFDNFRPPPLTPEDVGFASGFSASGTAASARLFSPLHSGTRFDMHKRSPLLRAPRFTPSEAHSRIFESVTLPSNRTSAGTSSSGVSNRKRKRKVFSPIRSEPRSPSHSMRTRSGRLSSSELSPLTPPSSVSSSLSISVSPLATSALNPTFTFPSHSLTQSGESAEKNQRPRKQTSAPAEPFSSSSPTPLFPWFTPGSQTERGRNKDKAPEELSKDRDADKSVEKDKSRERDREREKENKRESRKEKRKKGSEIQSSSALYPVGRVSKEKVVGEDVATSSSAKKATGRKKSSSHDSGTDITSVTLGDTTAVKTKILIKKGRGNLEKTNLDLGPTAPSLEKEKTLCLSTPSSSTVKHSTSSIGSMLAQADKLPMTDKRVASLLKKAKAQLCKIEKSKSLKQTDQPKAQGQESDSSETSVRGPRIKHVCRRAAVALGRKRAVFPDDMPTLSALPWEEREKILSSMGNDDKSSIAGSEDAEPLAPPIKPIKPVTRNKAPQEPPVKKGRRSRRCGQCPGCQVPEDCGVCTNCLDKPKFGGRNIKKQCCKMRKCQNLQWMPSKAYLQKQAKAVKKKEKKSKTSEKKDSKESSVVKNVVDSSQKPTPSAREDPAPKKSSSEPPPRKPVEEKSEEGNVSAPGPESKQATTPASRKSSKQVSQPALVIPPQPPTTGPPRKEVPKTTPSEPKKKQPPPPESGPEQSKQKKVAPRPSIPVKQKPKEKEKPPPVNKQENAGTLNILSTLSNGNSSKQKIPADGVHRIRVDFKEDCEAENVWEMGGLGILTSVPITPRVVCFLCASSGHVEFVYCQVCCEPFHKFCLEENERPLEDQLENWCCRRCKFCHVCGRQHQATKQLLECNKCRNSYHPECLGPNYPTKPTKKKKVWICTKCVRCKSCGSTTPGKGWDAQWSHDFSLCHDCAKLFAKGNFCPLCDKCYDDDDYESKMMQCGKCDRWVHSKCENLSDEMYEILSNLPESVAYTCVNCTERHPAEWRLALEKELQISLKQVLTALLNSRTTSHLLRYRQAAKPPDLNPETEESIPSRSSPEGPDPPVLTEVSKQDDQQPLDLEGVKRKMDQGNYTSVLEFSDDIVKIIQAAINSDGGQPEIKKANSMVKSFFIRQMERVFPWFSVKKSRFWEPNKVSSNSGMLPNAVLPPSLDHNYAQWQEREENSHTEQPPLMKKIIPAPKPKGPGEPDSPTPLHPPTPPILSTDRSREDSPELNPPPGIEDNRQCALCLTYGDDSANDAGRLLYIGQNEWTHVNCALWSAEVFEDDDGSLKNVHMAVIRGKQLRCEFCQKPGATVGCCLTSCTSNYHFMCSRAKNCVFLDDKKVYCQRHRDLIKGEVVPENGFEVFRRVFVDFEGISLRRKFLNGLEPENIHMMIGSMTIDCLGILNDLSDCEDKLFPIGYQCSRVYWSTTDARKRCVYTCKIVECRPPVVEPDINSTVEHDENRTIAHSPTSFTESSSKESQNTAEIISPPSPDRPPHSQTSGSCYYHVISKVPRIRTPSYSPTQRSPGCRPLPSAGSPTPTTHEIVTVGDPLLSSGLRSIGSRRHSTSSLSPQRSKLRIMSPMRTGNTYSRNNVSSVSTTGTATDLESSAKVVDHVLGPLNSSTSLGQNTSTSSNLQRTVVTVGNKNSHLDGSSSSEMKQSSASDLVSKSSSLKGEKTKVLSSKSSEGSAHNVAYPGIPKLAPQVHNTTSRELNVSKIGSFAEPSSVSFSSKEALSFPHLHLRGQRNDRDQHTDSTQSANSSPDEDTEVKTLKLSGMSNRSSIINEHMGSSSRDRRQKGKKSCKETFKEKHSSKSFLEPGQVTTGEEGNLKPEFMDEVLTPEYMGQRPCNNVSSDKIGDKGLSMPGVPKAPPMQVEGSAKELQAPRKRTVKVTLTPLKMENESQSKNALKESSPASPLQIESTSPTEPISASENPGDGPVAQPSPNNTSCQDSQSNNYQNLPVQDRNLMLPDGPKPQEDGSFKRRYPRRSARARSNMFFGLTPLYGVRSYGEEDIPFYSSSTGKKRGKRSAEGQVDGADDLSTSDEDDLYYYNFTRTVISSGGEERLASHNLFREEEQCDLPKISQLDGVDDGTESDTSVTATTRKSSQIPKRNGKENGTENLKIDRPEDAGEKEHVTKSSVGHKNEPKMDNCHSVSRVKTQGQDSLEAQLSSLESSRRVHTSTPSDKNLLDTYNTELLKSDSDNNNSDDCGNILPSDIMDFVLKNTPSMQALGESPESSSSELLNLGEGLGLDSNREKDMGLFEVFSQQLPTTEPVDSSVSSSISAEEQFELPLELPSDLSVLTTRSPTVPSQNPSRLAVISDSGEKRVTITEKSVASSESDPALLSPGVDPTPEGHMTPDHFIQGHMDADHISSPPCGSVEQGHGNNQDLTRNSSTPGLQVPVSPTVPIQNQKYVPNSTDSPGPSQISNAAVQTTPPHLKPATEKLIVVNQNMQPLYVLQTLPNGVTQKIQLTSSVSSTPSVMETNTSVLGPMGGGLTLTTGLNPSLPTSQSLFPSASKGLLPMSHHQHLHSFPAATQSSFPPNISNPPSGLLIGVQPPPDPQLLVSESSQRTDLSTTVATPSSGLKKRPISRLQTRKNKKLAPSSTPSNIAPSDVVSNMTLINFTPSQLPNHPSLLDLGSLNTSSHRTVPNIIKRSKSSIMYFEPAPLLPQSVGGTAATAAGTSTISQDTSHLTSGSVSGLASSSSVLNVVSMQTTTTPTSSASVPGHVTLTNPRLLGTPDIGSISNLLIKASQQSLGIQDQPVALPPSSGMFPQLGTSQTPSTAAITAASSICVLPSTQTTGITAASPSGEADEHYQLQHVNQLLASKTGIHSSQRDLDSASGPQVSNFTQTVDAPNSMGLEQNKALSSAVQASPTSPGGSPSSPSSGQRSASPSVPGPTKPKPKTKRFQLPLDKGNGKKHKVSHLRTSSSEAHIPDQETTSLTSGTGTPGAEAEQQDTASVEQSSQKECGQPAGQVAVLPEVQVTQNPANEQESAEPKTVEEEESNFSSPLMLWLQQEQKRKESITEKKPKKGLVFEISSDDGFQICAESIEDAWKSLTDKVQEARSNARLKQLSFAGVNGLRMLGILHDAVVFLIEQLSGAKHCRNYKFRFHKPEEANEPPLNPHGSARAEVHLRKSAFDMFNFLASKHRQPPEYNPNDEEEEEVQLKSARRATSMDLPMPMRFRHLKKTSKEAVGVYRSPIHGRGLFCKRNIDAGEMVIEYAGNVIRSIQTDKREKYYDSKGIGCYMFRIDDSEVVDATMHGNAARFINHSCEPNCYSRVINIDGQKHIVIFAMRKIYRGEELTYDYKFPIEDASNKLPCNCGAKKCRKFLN

biological target: Menin (Homo sapiens) (UniProt O00255); test: qHTS Assay for Inhibitors Targeting the Menin-MLL Interaction in MLL Related Leukemias: Competition With Texas Red Labeled MLL-derived Mutant Peptide; conditions: fluorescence polarization; at 61.6 µM (top of the series); further: % of control where 0% means no effect

SMILES	FP activity change, negative = inhibition
COc1ccc(N/C(=N/P(=O)(N2CCOCC2)N2CCOCC2)N2CCOCC2)cc1	inactive: -1.59%
